Apparent affinities of Ab-14 variants for a coronavirus HR2 peptide

Reference: Li et al. 2023, doi:10.1038/s41467-023-39022-2. File: FLAb, binding data.

Target: peptide PDVDLGDISGINAS, taken from heptad repeat 2 (HR2) of SARS-CoV-2 spike.

Parent scFv Ab-14: VH joined to VL by a (GGGGS)3 linker. Changes lie in the light chain CDRs alone.
VH: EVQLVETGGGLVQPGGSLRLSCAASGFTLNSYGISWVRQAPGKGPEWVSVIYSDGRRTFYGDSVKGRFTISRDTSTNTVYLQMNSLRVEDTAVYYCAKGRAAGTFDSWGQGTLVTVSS
VL: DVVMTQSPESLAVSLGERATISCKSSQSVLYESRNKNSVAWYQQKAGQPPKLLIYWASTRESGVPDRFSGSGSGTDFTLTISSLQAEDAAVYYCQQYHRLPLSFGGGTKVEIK

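The starting antibody came from a phage panning campaign against this peptide. The variants were designed computationally from a first round of random CDR variants and then made and measured. Several design methods are mixed in this list. The scFvs were displayed on barcoded MATa yeast, the peptide on MATalpha yeast. Pairs that bind mate more often; barcode pairs of the diploids are counted by sequencing. A regression on co-assayed BCL2-family reference pairs converts the normalised counts of each replicate to an apparent Kd. The assay was run in six technical replicates.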

Variants are written as CDR1, CDR2 and CDR3 of the light chain (limits as in the source). Parent: KSSQSVLYESRNKNSVA, WASTRES, QQYHRLPLS. Scale: log10 of Kd in nM, estimated from mating counts; low values are strong binders. Averages over replicates are reported, and they cover detected replicates only. An entry "no signal" has no value in the source: the pair was not observed among the diploids in any replicate. This suggests poor binding but is not conclusive. Background: pairings of all light chain designs with three empty control strains gave a value in 4% of cases (median 2.64, 5th percentile 1.59). Values in that range, when seen in few replicates, are hard to tell from nonspecific mating. Also given: how often the same scFv was detected with the empty control strains.

| CDR-L1 | CDR-L2 | CDR-L3 | log10 Kd (nM), mean | seen in | empty controls |
|---|---|---|---|---|---|
| KSQQSVLYDSRNKNSVA | MASTRES | QQYHRLPLS | 1.00 | 6/6 | 1/18 |
| HITYGMMLAGRHSSSIA | QAEERAK | QQYDRLPLI | 0.31 | 6/6 | 0/18 |
| KNSQSVLYEERNKNSVA | WDSTRES | QQYHRLPLS | no signal | 0/6 | 0/18 |
| MVHQLMLWGLHAKNSIA | EAQTRLN | QQYDRLPLF | no signal | 0/6 | 0/18 |
| KLNDTFQQYERNNGSVA | DAIISEA | QQYARLPLI | 0.39 | 6/6 | 0/18 |
| KLSMTHEMELKNRNSVA | ELVTRMS | QQYNRLPLS | 0.83 | 6/6 | 0/18 |
| KLTATMRFEQKISNNIA | EVTQRSK | QQYYRLPLS | 0.59 | 6/6 | 0/18 |
| MISQLTNMGQFAINSVA | QASIRNA | QQYDRLPLA | 0.90 | 6/6 | 1/18 |
| KITQTMRFEQKASNNIA | EVTLRSN | QQYYRLPLS | 1.30 | 6/6 | 2/18 |
| KISQSVLYESDNKNSVA | WASTRES | QQYHRLPLS | 0.87 | 6/6 | 0/18 |
| KFSCGVDYESRNKNSVA | GGSTRES | QQYHRLPLS | 0.29 | 6/6 | 1/18 |
| MISQLYNVGTFAINSVA | QASLRCN | QQYDRLPLM | 1.42 | 3/6 | 2/18 |
| MINQLYNMGSFAINSVA | QASQRNE | QQYDRLPLI | 1.19 | 6/6 | 0/18 |
| KLSQSVLYESRNKNAVA | EASQRES | QQYHRLPLS | -0.38 | 6/6 | 0/18 |
| KLSQVTHSESRNKNSIA | EMVTRED | QQYDRLPLS | 0.96 | 6/6 | 1/18 |
| KSSQHVLYESRNKNSVA | WASTRES | QQYVRLPLS | 2.23 | 1/6 | 0/18 |
| KMYQSELYESRNKNSVA | NASQRES | QQYHRLPLS | 0.14 | 6/6 | 0/18 |
| TLGASTLEESRNKNSVA | EMSLREA | QSYNRLPLS | 0.33 | 6/6 | 1/18 |
| KLMGSELGESRNKNSVA | SADTRES | QQYHRLPLS | 0.82 | 6/6 | 3/18 |
| KLDQSELYESRNKQSVA | NASQRES | QQYHRLPLS | 0.27 | 6/6 | 1/18 |
| KLESLMGESYAEKENIA | EGEQRFS | QQYHRLPLH | 1.30 | 6/6 | 1/18 |
| KIGHQMVGNWKTDNNIA | QGDTRGS | QSYDRLPLS | 1.40 | 5/6 | 0/18 |
| MISQLYNLGTFAINSVA | QASVRNE | QQYDRLPLQ | 1.33 | 6/6 | 1/18 |
| SLSMNQGEESSHWENVA | QGDIAEN | QDYSRLPLI | 2.56 | 4/6 | 1/18 |

Further variants, results first:

| log10 Kd (nM), mean | seen in | empty controls | CDR-L1 | CDR-L2 | CDR-L3 |
|---|---|---|---|---|---|
| 2.08 | 2/6 | 0/18 | QIAMEMYHGLNDAQNVA | DAMTYEK | QQYSRLPLF |
| no signal | 0/6 | 0/18 | FLHGNIEYGNKNWSAIA | ENTIRVP | QYYQHLPLA |
| -0.25 | 6/6 | 4/18 | KLSQSVLYESRNKNSVA | GASTREV | QQYHRLPLS |
| 0.02 | 6/6 | 0/18 | KLEQSTLYEQRMCNSVA | NASQRES | QQYHRLPLS |
| 1.95 | 3/6 | 0/18 | HLGMATMLQETVRNSVA | NNSTRES | QQYDRLPLS |
| 1.01 | 5/6 | 1/18 | MLGMTVMQGMVSRNSVA | QEETRAE | QQYHHLPLS |
| 1.19 | 6/6 | 2/18 | KLSMYTGHMSVSKNNVA | EMETRVN | QQYDRLPLS |
| 0.15 | 6/6 | 0/18 | KLDQSTLYESRNKNSVA | WASTRES | QQYHRLPLS |
| no signal | 0/6 | 0/18 | MLSQMWALGMKVSNSVA | QVSTRFE | QQYDRLPLI |
| 2.49 | 2/6 | 1/18 | KSSQALLYESRNKNSVA | WASTREA | QDYHRLPNS |
| 1.57 | 6/6 | 1/18 | STTSHEEESEGAHASVA | EASMLES | QQYHRLPLD |
| 1.46 | 6/6 | 0/18 | TISQLHNMGTFAINSVA | QAEIRNE | QQYDRLPLT |
| -0.07 | 6/6 | 2/18 | HIFPQENVYGKNNNNVA | DGSTQAW | QQYHRLPLS |
| 0.93 | 3/6 | 0/18 | KISYLANQTFEESNNVA | EMVTREK | QQYNRLPLS |
| -0.31 | 6/6 | 1/18 | KLPQSMLYESRNKNSVA | SASQRES | QQYHRLPLS |
| -0.21 | 6/6 | 1/18 | KLSQSHEYESRNKNSVA | NASTRES | QQYHRLPLS |
| 1.53 | 6/6 | 0/18 | KLSWKSLYGETRWSAIA | NTKVRNA | QQYFRLPIQ |
| 0.40 | 6/6 | 0/18 | KLSQSVPYESRNKNSVA | NASTRES | QDYHRLPLS |
| -0.35 | 6/6 | 0/18 | KLSQSHLYESRNKNSVA | EASTRES | QQYHRLPLS |
| 0.78 | 6/6 | 1/18 | TLMHHQDYGGEEKKSIA | NAIIKNE | QQYSRLPLA |
| 2.58 | 5/6 | 0/18 | KSSQSVIYGSRNANSVA | WASTRES | QQYHRLPLS |
| 1.21 | 6/6 | 3/18 | QITGSIYDKDEWGKAIA | AEDQREL | QQYFKLPLS |
| 1.52 | 6/6 | 2/18 | HMNTADVGVSDHYNSVA | EQRAAHI | QQYFRLPLS |
| 0.45 | 6/6 | 1/18 | NLMHHQGRYDVWKESIA | EASIRAS | QQYQRLPLA |

From the list, the first 4 with no signal in any replicate:

CDR-L1,CDR-L2,CDR-L3,"log10 Kd (nM), mean",seen in,empty controls
KNSQSVLYEERNKNSVA,WDSTRES,QQYHRLPLS,no signal,0/6,0/18
MVHQLMLWGLHAKNSIA,EAQTRLN,QQYDRLPLF,no signal,0/6,0/18
FLHGNIEYGNKNWSAIA,ENTIRVP,QYYQHLPLA,no signal,0/6,0/18
MLSQMWALGMKVSNSVA,QVSTRFE,QQYDRLPLI,no signal,0/6,0/18

The authors averaged sequences with at least three values out of six and counted those with two or fewer as poor binders. Of ten entries with the parent sequence, four were seen in most replicates (averages 0.34 to 2.37), three in one and three in none, so single entries are noisy. Values of this round are not directly comparable with the first-round values of the same sequences.